From PubChem BioAssay AID651661 (Broad Institute, 2012) come the findings set out here.

Usually inhibition stands for the change of the read-out against control, counted positive when it falls.

Structures are written as SMILES. The list shows a part of the results, in another mix than the full data. Some salts and complexes are drawn in separate pieces, as the source files them; their charges need not balance. Calls of active or inactive are those of the source.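 The calls were made as follows: active = mean inhibition of at least 50% after viability correction, with every replicate also passing that limit; inconclusive = mean reaches 50% but only one of two replicates passes; inactive = the rest.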

This assay can be described thus: blockers of EWS/Fli transcriptional output – A673 cells, NR0B1 luciferase, luminescence, MLPCN library, primary screen (AID 651661).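 Also: firefly luciferase signal divided by Alamar Blue viability fluorescence both relative to DMSO.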 The conditions noted are these: A673 NR0B1-luciferase reporter, viability-normalised; at 12.6 µM; hits give high values. Background: In a reporter assay the amount or activity of a reporter protein is the signal.
As to `CP(=O)(Nc1cccc(Br)c1)Oc1ccccc1` (stereo not given), the inhibition is inactive: 9.68%. For `CCOC(=O)c1ccc(NP(C)(=O)Oc2cc(C)cc(C)c2)cc1` (stereo not given) the value was inactive: -6.44%; for `Cc1cc(C)cc(OP(C)(=O)Nc2ccc(C)cc2C)c1` (stereo not given), inactive: 0.0355%; for `O=C(O)c1cccc(Nc2c([N+](=O)[O-])cc([N+](=O)[O-])cc2[N+](=O)[O-])c1`, inactive: 2.35%.

As for `CN1CCCCC1COC(=O)C1(O)c2ccccc2CCc2ccccc21` (stereo not given), the inhibition is inactive: -8.05%. Regarding `COc1ccc(-c2ccccn2)cc1.O=[N+]([O-])c1cc([N+](=O)[O-])c(O)c([N+](=O)[O-])c1`, the inhibition is inactive: -26.6%.

Regarding `CCCOc1ccc(NP(C)(=O)Oc2ccc(Cl)cc2)cc1` (stereo not given), the inhibition is inactive: 5.18%. Take `O=[N+]([O-])c1cc([N+](=O)[O-])c(Nc2nnnn2CCO)c([N+](=O)[O-])c1`: the inhibition was inactive: -6.87%. As for `CCOC(=O)C(CC)C1=NC(C)(C)Cc2ccccc21.O=[N+]([O-])c1cc([N+](=O)[O-])c(O)c([N+](=O)[O-])c1` (stereo not given), the figure is inactive: -2.3%; as for `O=[N+]([O-])c1cc([N+](=O)[O-])c(-c2cnn(-c3ccccc3)c2)c([N+](=O)[O-])c1`, inactive: 27.3%; as for `O=[N+]([O-])c1cc([N+](=O)[O-])c(-n2nnc3ccccc32)c([N+](=O)[O-])c1`, inactive: -4.65%.

For `CN(Cc1cccnc1)C(=O)COc1ccc(Cl)c(Cl)c1.O=[N+]([O-])c1cc([N+](=O)[O-])c(O)c([N+](=O)[O-])c1`, the inhibition was inactive: 0.411%.

Turning to `CCOC(=O)c1ccc(NP(C)(=O)Oc2ccc(OC)cc2)cc1` (stereo not given), the inhibition is inactive: -2.89%. For `O=[N+]([O-])c1cc([N+](=O)[O-])c(O)c([N+](=O)[O-])c1.c1ccc(Oc2ccncc2)cc1`, the inhibition was inactive: 13.7%. Take `CP(=O)(Nc1ccccn1)Oc1ccc(Cl)cc1` (stereo not given): the inhibition was inactive: -15.8%. With `CP(=O)(Nc1ccc(SC(F)(F)F)cc1)Oc1ccc(Cl)cc1` (stereo not given), the inhibition was inactive: 1.17%. Turning to `CP(=O)(Oc1ccccc1)OC(c1ccccc1)C(F)(F)F` (stereo not given), the inhibition was inactive: 2.73%. On to `CP(=O)(NC(=O)Nc1ccccc1)Oc1ccccc1` (stereo not given), for which the inhibition is inactive: -0.583%. Consider `CP(=O)(Nc1ccccc1Br)Oc1ccccc1` (stereo not given), for which the inhibition is inactive: -8.82%. With `COc1ccccc1OP(C)(=O)Nc1ccccc1` (stereo not given), the inhibition was inactive: -3.38%. Regarding `Cc1cc(C)cc(OP(C)(N)=O)c1` (stereo not given), the inhibition was inactive: 13.2%. As for `COc1ccccc1OP(C)(=O)Nc1cc(Cl)ccc1C` (stereo not given), the figure is inactive: 9.3%; as for `O=[N+]([O-])c1cc([N+](=O)[O-])c(Nc2cccnc2)c([N+](=O)[O-])c1`, inactive: 12.3%; as for `O=[N+]([O-])c1ccc2c(c1)C=Nc1ccccc1O2`, inactive: 15.6%. In the case of `CC(C)(C)c1ccc(OP(C)(=O)Nc2ccc(SC(F)(F)F)cc2)cc1` (stereo not given), the inhibition was inactive: 2.89%. On to `Cc1cccc(C)c1OP(C)(N)=O` (stereo not given), for which the inhibition is inactive: 7.69%. Take `COc1ccccc1-c1ccccn1.O=[N+]([O-])c1cc([N+](=O)[O-])c(O)c([N+](=O)[O-])c1`: the inhibition is inactive: -19.6%. As for `CCN(CC)CCCOC(=O)C(O)(c1ccccc1)c1ccccc1`, the figure is inactive: 7.91%; as for `O=[N+]([O-])c1cc([N+](=O)[O-])c(Nc2ccccn2)c([N+](=O)[O-])c1`, inactive: 22.1%; as for `COc1ccccc1OP(C)(=O)Nc1ccc(Br)cc1` (stereo not given), inactive: 0.421%. For `CP(=O)(Nc1ccc(Cl)cc1Cl)Oc1ccccc1` (stereo not given) the value was inactive: 1.88%. With `CCCCCCCCCCCCCCCC1C[N+](C)(C)CCOP(C)(=O)O1` (stereo not given), the inhibition is inactive: 23.8%. In the case of `CP(=O)(OCCOc1ccccc1)OCCOc1ccccc1`, the inhibition is inactive: 0.0445%. For `O=C1C(O)=C([N+](=O)[O-])C(=O)C(O)=C1[N+](=O)[O-]` the value was inactive: -1.9%. In the case of `Cc1cc(C)cc(OP(C)(=O)Nc2cccc(C(F)(F)F)c2)c1` (stereo not given), the inhibition was inactive: -3.11%. With `Nc1ccc2c(ccc3cccnc32)n1.O=[N+]([O-])c1cc([N+](=O)[O-])c(O)c([N+](=O)[O-])c1`, the inhibition was inactive: -27.4%.

Take `CCOC(=O)c1ccc(NP(C)(=O)Oc2ccc(Cl)cc2)cc1` (stereo not given): the inhibition is inactive: 11.2%. For `COc1ccccc1OP(C)(=O)Nc1ccccc1Br` (stereo not given), the inhibition is inactive: -0.322%. As to `CN(C)C(=O)c1c([N+](=O)[O-])cc([N+](=O)[O-])cc1[N+](=O)[O-]`, the inhibition was inactive: 25.9%.

`O=C(OCCCN1CCCC1)C(O)(c1ccccc1)C1CCCCC1` (stereo not given): the inhibition was inactive: -0.341%.

On to `CCc1ccc(OP(C)(=O)Nc2cccnc2)cc1` (stereo not given), for which the inhibition is inactive: 5.27%. `O=[N+]([O-])c1cc([N+](=O)[O-])c(C(F)(F)F)c([N+](=O)[O-])c1O`: the inhibition is inactive: -2.76%. In the case of `CP(=O)(Nc1ccc(SC(F)(F)F)cc1)Oc1ccc(F)cc1` (stereo not given), the inhibition was inactive: 7.32%. Regarding `CCOP(=O)(CC)OCC`, the inhibition is inactive: 2.5%. `O=[N+]([O-])c1ccc(OP2(=O)COCCO2)cc1` (stereo not given): the inhibition was inactive: -3.31%. As for `Cc1cc(-c2cccc3ccccc23)c(C)cn1.O=[N+]([O-])c1cc([N+](=O)[O-])c(O)c([N+](=O)[O-])c1`, the figure is inactive: 8.21%. For the compound `O=[N+]([O-])c1cc([N+](=O)[O-])c(NCC2CCS(=O)(=O)C2)c([N+](=O)[O-])c1` (stereo not given), the inhibition is inactive: 15.1%. `Cc1c(C(c2ccc3c(c2)OCO3)c2c(C)n(C)n(-c3ccccc3)c2=O)c(=O)n(-c2ccccc2)n1C.O=[N+]([O-])c1cc([N+](=O)[O-])c(O)c([N+](=O)[O-])c1`: the inhibition is inactive: -8.92%.

`COc1ccc(NP(C)(=O)Oc2ccccc2OC)cc1` (stereo not given): the inhibition was inactive: 0.591%.

`Cc1c([N+](=O)[O-])cc([N+](=O)[O-])c(Br)c1[N+](=O)[O-]`: the inhibition is inactive: -5.32%. Take `O=[N+]([O-])c1cc([N+](=O)[O-])c(OC2CCCCC2O)c([N+](=O)[O-])c1` (stereo not given): the inhibition was inactive: 0.266%. As for `CCCCCOc1ccc(NP(C)(=O)Oc2ccc(Cl)cc2Cl)cc1` (stereo not given), the figure is inactive: 18.9%; as for `CCN(CC)CCCNc1ccccc1[N+](=O)[O-].O=[N+]([O-])c1cc([N+](=O)[O-])c(O)c([N+](=O)[O-])c1`, inactive: -10%.

As for `COc1ccc(OP(C)(=O)Nc2ccc(SC(F)(F)F)cc2)cc1` (stereo not given), the inhibition is inactive: -7.36%. As for `O=C(OC1CN2CCC1CC2)c1ccc([N+](=O)[O-])cc1` (stereo not given), the figure is inactive: 7.21%; as for `O=C(OCCN1CCN(CCOCc2ccccc2)CC1)C(O)(c1ccccc1)c1ccccc1`, inactive: 4.71%; as for `COc1ccc2c(c1O)-c1c(O)c(OC)cc3c1[C@H](C2)[N+](C)(C)CC3.O=[N+]([O-])c1cc([N+](=O)[O-])c([O-])c([N+](=O)[O-])c1[O-]`, inactive: -7.52%. Consider `O=[N+]([O-])c1cc([N+](=O)[O-])c(Nc2ccc(Cl)cc2)c([N+](=O)[O-])c1`, for which the inhibition is inactive: 18.4%.

`CP(=O)(Nc1ccccc1F)Oc1ccccc1` (stereo not given): the inhibition was inactive: -5.62%. `CC(C)c1ccc(OP(C)(=O)Nc2ccc(SC(F)(F)F)cc2)cc1` (stereo not given): the inhibition is inactive: -1.42%.
